Laboratory results reported in US20110154874A1, “MIXTURE FOR THE TREATMENT OF UREA-CONTAINING FERTILIZERS” (FERTIVA GmbH, priority 2007, published 2011).

Tested on: Chinese cabbage
Details: in vivo

calcium ammonium nitrate [Calcium ammonium nitrate (CAN)]
% plant damage 5 days after planting: 0%
